Drawing on PubChem BioAssay AID493036 (Sanford-Burnham Center for Chemical Genomics, 2011), this text covers activation for 67 compounds.

The chains behind the UniProt entries cited, without tags or fusion partners.
UniProt P30989, whole entry: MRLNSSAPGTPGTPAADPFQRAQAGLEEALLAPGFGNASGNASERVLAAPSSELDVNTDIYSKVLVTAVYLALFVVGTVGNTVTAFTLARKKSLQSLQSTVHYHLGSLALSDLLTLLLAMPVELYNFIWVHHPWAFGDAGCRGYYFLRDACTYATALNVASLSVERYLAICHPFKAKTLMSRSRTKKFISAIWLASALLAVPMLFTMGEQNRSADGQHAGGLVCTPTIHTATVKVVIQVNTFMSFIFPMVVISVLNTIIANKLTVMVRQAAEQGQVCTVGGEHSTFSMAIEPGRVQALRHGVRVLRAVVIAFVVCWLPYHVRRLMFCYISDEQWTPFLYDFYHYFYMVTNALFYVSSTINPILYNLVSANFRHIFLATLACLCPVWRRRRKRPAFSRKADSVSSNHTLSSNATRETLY

Molecules are shown by their SMILES. Only a part is listed here, and it is no random draw. Activity calls are given as the source filed them.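 The calls were made as follows: active = activation at or above 40% of the spot to cytoplasm intensity ratio, with at least 20 cells analyzed; inconclusive = wells under 20 cells, flagged as cytotoxic or low count; inactive = the rest.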

The target in the assay is Neurotensin receptor type 1 (Homo sapiens) (UniProt P30989). Put plainly: NTR1-driven beta-arrestin-GFP spot formation – imaging, U2OS cells, high content, primary screen (AID 493036) (AID 493036).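 Also: 0% = DMSO without peptide and 100% = 100 nM NTR1 peptide.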 The note with it: agonist mode, at 20 µM, hits give high values.
Regarding `CCC(CO)(C(=O)OC1CN2CCC1CC2)c1ccccc1` (configuration not stated), the activation was inactive: -1.1%.

For the compound `COc1cc(OC)cc(C(=O)NCC2(N3CCOCC3)CCCCC2)c1`, the activation is inactive: 0.5%.

Regarding `COc1cccc(C(=O)N(c2cc(C)cc(C)c2)C2CCN(C(=O)OC(C)(C)C)CC2)c1`, the activation was inactive: 2.7%.

Take `CCCOc1ccc(C)cc1CN(CCCl)CCCl`: the activation is inactive: 0.8%.

Turning to `CN1CCC(Nc2ccc(Cl)cc2)CC1`, the activation is inactive: -1.9%.

Turning to `CN1CCC(Nc2ccc(F)c(Cl)c2)CC1`, the activation is inactive: -1%.

On to `CCOc1ncccc1C(=O)NCC1(N2CCOCC2)CCCCC1`, for which the activation was inactive: 4.4%.

For `CCCOc1ccc(C(=O)NCC2(N(C)C)CCCCC2)cc1`, the activation was inactive: -0.9%.

With `O=C(O)C1(Nc2ccccc2)CCN(Cc2ccccc2)CC1`, the activation is inactive: -0.9%.

Regarding `CC(C)(C)OC(=O)N1CCC(Nc2ccccc2)CC1`, the activation is inactive: 0.5%.

With `CCN1CCC(Nc2cccc(F)c2)CC1`, the activation was inactive: -0.7%.

Consider `CN(C)c1ccc(C(=O)NCC2(N3CCCCC3)CCCCC2)cc1`, for which the activation was inactive: 0.8%.

For `O=C(NCC1(N2CCCCC2)CCCCC1)c1ccco1`, the activation was inactive: -0.7%.

For `COc1cc(OC)cc(C(=O)NCC2(N3CCCCC3)CCCCC2)c1`, the activation is inactive: -0.7%.

Consider `Fc1ccccc1NC1CCN(Cc2ccccc2)CC1`, for which the activation was inactive: -1.7%.

For the compound `Cc1ccc(C(=O)NCC2(N3CCCCC3)CCCCC2)o1`, the activation was inactive: 0.1%.

Regarding `CCCN1CCC(Nc2cc(OC)cc(OC)c2)CC1`, the activation is inactive: 2.5%.

As to `c1ccc(CN2CCC(Nc3ccccc3)CC2)cc1`, the activation was inactive: -0.1%.

As to `CN(C)C1(CNC(=O)c2cccc(C#N)c2)CCCCC1`, the activation was inactive: 0.5%.

On to `CC(C)(C)OC(=O)N1CCC(N(C(=O)c2ccccc2)c2ccc(Cl)cc2)CC1`, for which the activation was inactive: 3.4%.

On to `N#Cc1ccc(C(=O)NCC2(N3CCCCC3)CCCCC2)cc1`, for which the activation was inactive: -1.7%.

Take `N/C(=N\O)c1c(N)no[n+]1[O-]`: the activation was inactive: -1.2%.

As to `CCOC(=O)N1CCC(Nc2ccc(C)cc2)CC1`, the activation was inactive: -1.1%.

On to `O=C(OC1CN2CCC1CC2)C1c2ccccc2C=Cc2ccccc21` (configuration not stated), for which the activation was inactive: 0%.

Consider `CCc1cc(C(=O)NCC2(N3CCCCC3)CCCCC2)sc1C`, for which the activation was inactive: 0.8%.

On to `O=C(NCC1(N2CCOCC2)CCCCC1)c1cc(Br)ccc1Cl`, for which the activation was inactive: 1.6%.

As to `COc1cc(C(=O)NCC2(N3CCOCC3)CCCCC2)cc(OC)c1C`, the activation is inactive: -0.9%.

Turning to `COc1ccc(C(=O)NCC2(N3CCOCC3)CCCCC2)cc1OC`, the activation was inactive: -0.1%.

In the case of `O=C(NCC1(N2CCCCC2)CCCCC1)c1cncc(Br)c1`, the activation is inactive: -1.2%.

`CN1CCC(Nc2cccc(F)c2)CC1`: the activation was inactive: -1.1%.

As to `CN(C)c1cccc(C(=O)NCC2(N3CCCCC3)CCCCC2)c1`, the activation was inactive: 0.4%.

Take `COc1ccc(CN(CCCl)CCCl)cc1Cl`: the activation is inactive: 0.7%.

On to `CC(C)c1ccc(NC2CCN(C(=O)OC(C)(C)C)CC2)cc1`, for which the activation was inactive: 8.2%.

Take `O=C(NCC1(N2CCOCC2)CCCCC1)c1cc(F)c(F)cc1Cl`: the activation is inactive: 1%.

As for `COc1cc(OC)c(C(=O)NCC2(N(C)C)CCCCC2)cc1OC`, the activation is inactive: 0.7%.

For `O=C(NCC1(N2CCCCC2)CCCCC1)c1cccc(C(F)(F)F)c1`, the activation was inactive: 1.2%.

As to `CN1CCN(CCOC(=O)C(O)(c2ccccc2)c2ccccc2)CC1`, the activation was inactive: 1.9%.

Regarding `COc1ccc(NC2CCN(C(=O)OC(C)(C)C)CC2)cc1`, the activation is inactive: 0.9%.

For the compound `CC(C)c1ccc(C(=O)NCC2(N3CCOCC3)CCCCC2)cc1`, the activation is inactive: 1.9%.

For the compound `COc1cc(C(=O)NCC2(N3CCCCC3)CCCCC2)ccc1OC(F)F`, the activation is inactive: 0.4%.

With `O=C(NCC1(N2CCOCC2)CCCCC1)c1cc(=O)[nH]c2ccccc12`, the activation is inactive: 0.2%.

As for `O=C(NCC1(N2CCCCC2)CCCCC1)c1ccc(OC(F)F)cc1`, the activation is inactive: -0.6%.

Consider `CSc1ccc(C(=O)NCC2(N3CCOCC3)CCCCC2)cc1`, for which the activation was inactive: 1.1%.

Turning to `O=C(NCC1(N2CCCCC2)CCCCC1)c1cccc([N+](=O)[O-])c1`, the activation was inactive: -0.4%.

As for `N#CC1(Nc2ccccc2)CCN(CCc2ccccc2)CC1`, the activation was inactive: -0.9%.

For the compound `CCN1CCC(Nc2ccc(Cl)cc2)CC1`, the activation is inactive: 2.1%.

As for `Cc1ccc(OCC(C)C)c(CN(CCCl)CCCl)c1`, the activation is inactive: 0.8%.

In the case of `CCOC(=O)N1CCC(Nc2cccc(C)c2)CC1`, the activation was inactive: 0.8%.

With `CCOc1ccc(C)cc1CN(CCCl)CCCl`, the activation was inactive: 0.3%.

Consider `COc1ccc(NC2CCN(CCc3ccccc3)CC2)c(OC)c1`, for which the activation is inactive: -1.4%.

With `CCOC(=O)N1CCC(Nc2ccc(F)cc2)CC1`, the activation is inactive: -0.9%.

Regarding `O=C(NCC1(N2CCCCC2)CCCCC1)c1ccc(F)cc1`, the activation is inactive: 0.9%.

Consider `CCCCOc1ccc(C(=O)NCC2(N3CCOCC3)CCCCC2)cc1`, for which the activation was inactive: 0.5%.

As for `O=C(NCC1(N2CCOCC2)CCCCC1)c1cc2ccccc2o1`, the activation was inactive: -1.5%.

For `Cc1cc(C)cc(N(C(=O)c2ccccc2)C2CCN(C(=O)OC(C)(C)C)CC2)c1`, the activation is inactive: 4.1%.

`O=C(NCC1(N2CCCCC2)CCCCC1)c1ccc(Cl)nc1`: the activation was inactive: -0.2%.

`CCOC(=O)N1CCC(Nc2ccc(OC)cc2)CC1`: the activation was inactive: -1.3%.

As to `COc1ccc(Cl)cc1C(=O)NCC1(N2CCOCC2)CCCCC1`, the activation is inactive: -0.2%.

With `O=C(OC1CN2CCC1CC2)C1c2ccccc2Oc2ccccc21` (configuration not stated), the activation is inactive: 2%.

`N#CC1(Nc2ccccc2)CCN(Cc2ccccc2)CC1`: the activation is inactive: -0.2%.

`O=C(NCC1(N2CCCCC2)CCCCC1)c1ccc(Cl)s1`: the activation is inactive: -0.9%.

Turning to `O=C(NCC1(N2CCCCC2)CCCCC1)c1cccs1`, the activation was inactive: -1.7%.

As to `O=C(NCC1(N2CCCCC2)CCCCC1)c1ccc(=O)[nH]c1`, the activation was inactive: -0.1%.

Take `COc1ccc(C(=O)NCC2(N3CCCCC3)CCCCC2)c(OC)c1OC`: the activation was inactive: -0.3%.

Take `CC(C)(C)OC(=O)N1CCC(N(C(=O)c2ccccc2)c2ccc(F)cc2)CC1`: the activation was inactive: -0.4%.

Take `COc1ccc(C(=O)NCC2(N3CCCCC3)CCCCC2)cc1`: the activation is inactive: 0.2%.

Turning to `CSc1ccccc1C(=O)NCC1(N2CCCCC2)CCCCC1`, the activation is inactive: 1.6%.
